{"sequences": {"note": "Protein sequences, listed by entry. Tags and fused reporters are not part of them. Residues count along the entry.", "UniProt P10747, 19-220": "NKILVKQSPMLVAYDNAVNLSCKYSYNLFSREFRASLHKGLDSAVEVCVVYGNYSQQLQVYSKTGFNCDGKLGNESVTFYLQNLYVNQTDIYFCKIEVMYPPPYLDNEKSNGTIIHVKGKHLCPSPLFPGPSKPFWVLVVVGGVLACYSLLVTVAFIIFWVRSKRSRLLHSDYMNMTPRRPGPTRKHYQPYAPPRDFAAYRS", "UniProt P10747, 19-152": "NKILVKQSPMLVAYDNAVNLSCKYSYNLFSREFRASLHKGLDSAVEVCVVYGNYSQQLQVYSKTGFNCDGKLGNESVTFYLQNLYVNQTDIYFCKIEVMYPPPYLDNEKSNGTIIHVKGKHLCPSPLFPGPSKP"}, "source": "patent US10280209B2", "about": "(YISSUM RESEARCH DEVELOPMENT COMPANY OF THE HEBREW …, priority 2013, dated 2019)", "key": {"signaling through CD3": {"tested_on": "signaling through CD3", "test": "αCD3-induced cytokine expression in human PBMC (ELISA)", "type": "cell-based", "conditions": "αCD3 alone, 10 μg/ml peptide", "procedure": "(§1) Peripheral blood mononuclear cells (PBMC) from healthy human donors were separated on Ficoll Paque (Amersham), washed twice with 50 ml of RPMI 1640 medium, re-suspended at a density of 4×10^6 cells/ml and cultured in this medium supplemented with 2% fetal calf serum, 2 mM glutamine, 10 mM Minimum Essential Medium (MEM) nonspecific amino acids, […], 10 mM Hepes pH 7.2, 5×10^−5 M 2-mercaptoethanol, 100 u/ml penicillin, 100 μg/ml streptomycin and 5 μg/ml nystatin. Mouse anti-human monoclonal antibodies αCD3 (clone UCHT1; 100 ng/ml) and αCD28 (clone 37407; 2.5 μg/ml) (both from R&D Systems) were used as inducers. Cytokines in culture medium were determined with Quantikine ELISA kits (R&D Systems) according to the manufacturer's instructions."}, "CD28": {"target": "T1, CD28 (Homo sapiens, UniProt P10747)", "T1 construct": "endogenous in cells; host or cells: human PBMC", "test": "αCD3/αCD28-induced cytokine expression in human PBMC (ELISA)", "type": "cell-based", "conditions": "αCD3/αCD28, 10 μg/ml peptide", "procedure": "as §1"}, "human PBMC": {"tested_on": "human PBMC", "test": "Cytokine induction by peptides alone in human PBMC (ELISA)", "type": "cell-based", "conditions": "10 μg/ml peptide, no inducer", "procedure": "as §1"}, "CD28-Fc": {"target": "CD28-Fc (Homo sapiens, UniProt P10747)", "test": "Surface plasmon resonance, CD28-Fc on immobilized peptide", "type": "binding", "conditions": "SPR, 25° C."}, "human IgG": {"tested_on": "human IgG", "test": "Surface plasmon resonance, human IgG control on immobilized peptide", "type": "binding", "conditions": "SPR, studied in parallel", "procedure": "Peptides were diluted to 10-200 μg/ml in 10 mM Sodium (Na) acetate pH 4.0 and immobilized on a CM5 sensor chip (BIAcore) using an amine-thiol coupling kit (BIAcore), respectively; the immobilized amounts were 500-1,000 resonance units. Analytes were injected at 20 μl/min in 25 mM HEPES pH 7.4, 150 mM NaCl, 3.4 mM EDTA, and 0.005% surfactant P20 under conditions showing no mass transport limitation. Regeneration was with 50 mM phosphoric acid. Kinetic analyses were performed at 25° C. in a BIAcore 3000 instrument, deducting the signal from the control flow cell from the binding signal. Analyte curves were run in duplicate; representative results are shown. Human IgG (Jackson Laboratories) served as control. Fusion of the IgG1-Fc domain to the 152-amino-acid extracellular domain of CD28 was performed as described below."}, "adjuvant arthritis": {"tested_on": "adjuvant arthritis", "test": "Adjuvant arthritis model", "type": "in vivo, rat", "conditions": "rats"}, "[1]": {"test": "Pharmacokinetic assay, serum level after IV injection", "type": "in vivo, mouse", "conditions": "mice", "procedure": "Analysis was performed by reverse phase liquid chromatography with mass spectrometric detection. An Agilent 1100 MSD system with temperature-controlled autosampler was used. The system was calibrated using purified (D-A)-p2TA-(D-A) (molecular weight, 1,037.2 g/mol, Bachem) and blank mouse plasma (Harlan, Israel) as reference."}, "[2]": {"tested_on": "collagen-induced arthritis", "test": "Collagen-induced arthritis model", "type": "in vivo, mouse", "conditions": "mice, 10 μg daily from disease onset (days 25-34)"}, "IL-6": {"tested_on": "IL-6", "test": "Plasma IL-6 in irradiated mice (ELISA)", "type": "in vivo, mouse", "conditions": "for inhibition of plasma IL-6 compared to irradiated mice: 8 Gy, 5 mg/kg IV 24 h after irradiation, day 7"}, "fibrinogen": {"tested_on": "fibrinogen", "test": "Plasma fibrinogen in irradiated mice (ELISA)", "type": "in vivo, mouse", "conditions": "for plasma fibrinogen as % of fibrinogen levels in irradiated counterparts: 8 Gy, 5 mg/kg IV 24 h after irradiation, day 7"}, "[3]": {"tested_on": "small intestine (jejunal crypts, villi)", "test": "Histopathological analysis of small intestine of irradiated mice", "type": "in vivo, mouse", "conditions": "for number of jejunal crypt microcolonies, RP group / mean villus height, irradiated and peptide-treated: 8 Gy, 5 mg/kg 24 h after irradiation, day 7"}, "cyclin D1": {"tested_on": "cyclin D1", "test": "Cyclin D1 immunohistochemistry in jejunal crypts of irradiated mice", "type": "in vivo, mouse", "conditions": "BALB/c and A/J, 8 Gy, 5 mg/kg 24 h after irradiation, day 7"}, "COX-2": {"tested_on": "COX-2", "test": "COX-2 immunohistochemistry in jejunum and spleen of irradiated mice", "type": "in vivo, mouse", "conditions": "8 Gy, single administration 24 hours after radiation, day 7"}, "[4]": {"target": "B7-2/CD28 synapse formation (Homo sapiens, UniProt P10747)", "test": "Intercellular B7-2/CD28 synapse formation by flow cytometry", "conditions": "HEK293T CD28/GFP and B7-2/Cherry cells, 0.1-1 μg/ml peptide"}, "F4/80-positive cells": {"tested_on": "F4/80-positive cells", "test": "Immunohistochemistry of activated macrophage marker F4/80 in mouse jejunum", "conditions": "8 Gy, 5 mg/kg 24 h after irradiation, day 7"}}, "data": [{"smiles": "CSCC[C@H](NC(=O)[C@@H]1CCCN1C(=O)[C@H](CO)NC(=O)[C@@H](C)N)C(=O)N[C@@H](CC(C)C)C(=O)N[C@H](C(=O)N[C@@H](C)C(=O)N[C@@H](Cc1ccc(O)cc1)C(=O)N[C@@H](CC(=O)O)C(=O)N[C@H](C)C(=O)O)C(C)C", "note": "[p2TA]", "values": [{"measurement": "αCD3-mediated induction of IFN-γ", "setting": "signaling through CD3", "result": "did not inhibit"}, {"measurement": "αCD3-mediated induction of IL2", "setting": "signaling through CD3", "result": "did not inhibit"}, {"measurement": "αCD3-mediated induction of TNF-α", "setting": "signaling through CD3", "result": "did not inhibit"}, {"measurement": "signaling through CD28 (IFN-γ, IL2, TNF-α secretion)", "setting": "CD28", "result": "inhibit signaling through CD28"}, {"measurement": "Th1 cytokine response induced by peptide alone", "setting": "human PBMC", "result": "do not induce a significant Th1 cytokine response"}, {"measurement": "apparent KD for binding to CD28-Fc", "setting": "CD28-Fc", "result": "in the micromolar range"}, {"measurement": "affinity for IgG", "setting": "human IgG", "result": "none of the peptides showed affinity for IgG"}, {"measurement": "cumulative reduction of disease symptoms", "setting": "adjuvant arthritis; 100 μg peptide IV on each of days 1-15, monitored through day 29", "result": 51, "unit": "%"}, {"measurement": "disease symptoms during treatment, up to day 15", "setting": "adjuvant arthritis; IV, dexamethasone daily days 10-15, peptides 100 μg daily days 1-15", "result": "did not exhibit inhibition of symptoms"}, {"measurement": "disease symptoms after termination of therapy on day 15", "setting": "adjuvant arthritis; two-week period after termination of treatment", "result": "leveled off and even showed a progressive further decline"}, {"measurement": "time after injection at which peptide was detected in serum", "setting": "[1]", "result": 1, "unit": "min"}, {"measurement": "time after injection by which peptide became undetectable in serum", "setting": "[1]", "result": "≤ 5", "unit": "min"}, {"measurement": "decrease of cumulative symptoms", "setting": "[2]", "result": 59, "unit": "%"}, {"measurement": "inhibition of plasma IL-6 compared to irradiated mice", "setting": "IL-6; A/J", "result": 31.8, "unit": "%"}, {"measurement": "inhibition of plasma IL-6 compared to irradiated mice", "setting": "IL-6; BALB/c", "result": 40.4, "unit": "%"}, {"measurement": "plasma IL-6 levels in sham-irradiated mice", "setting": "IL-6; sham-irradiated, 5 mg/kg", "result": "did not affect"}, {"measurement": "plasma fibrinogen as % of fibrinogen levels in irradiated counterparts", "setting": "fibrinogen; A/J", "result": 62.9, "unit": "%"}, {"measurement": "plasma fibrinogen as % of fibrinogen levels in irradiated counterparts", "setting": "fibrinogen; BALB/c", "result": 67.5, "unit": "%"}, {"measurement": "plasma fibrinogen levels in sham-irradiated mice", "setting": "fibrinogen; sham-irradiated, 5 mg/kg", "result": "did not affect fibrinogen levels significantly"}, {"measurement": "number of jejunal crypt microcolonies, RP group", "setting": "[3]; A/J, R group 7.8±1.6", "result": "12.1±2.1 /μm"}, {"measurement": "mean villus height, irradiated and peptide-treated", "setting": "[3]; A/J, control 208±45, irradiated 122±22", "result": "176±42", "unit": "μm"}, {"measurement": "number of jejunal crypt microcolonies, RP group", "setting": "[3]; BALB/c, R group 6.5±1.3", "result": "12.4±3.2 /μm"}, {"measurement": "mean villus height, irradiated and peptide-treated", "setting": "[3]; BALB/c, control 192±41, irradiated 86±25", "result": "141±27", "unit": "μm"}, {"measurement": "villus height in sham-irradiated mice", "setting": "[3]; sham-irradiated, 5 mg/kg", "result": "little or no effect"}, {"measurement": "radiation-induced decline in numbers of cyclin D1 positive cells", "setting": "cyclin D1", "result": "negligible"}, {"measurement": "radiation-induced increase in expression of COX-2 in jejunum and spleen", "setting": "COX-2", "result": "ameliorated"}, {"measurement": "intercellular B7-2/CD28 synapse formation", "setting": "[4]", "result": "pronounced inhibitory effect"}, {"measurement": "number of F4/80-positive cells (macrophages) in jejunum, RP group", "setting": "F4/80-positive cells; A/J, control 1.04, irradiated 3.68", "result": "1.37 ± 0.68", "unit": "cells/mm2"}, {"measurement": "number of F4/80-positive cells (macrophages) in jejunum, RP group", "setting": "F4/80-positive cells; BALB/c, control 3.39, irradiated 6.69", "result": "0.77 ± 0.31", "unit": "cells/mm2"}]}]}
